Data taken from the supplement of paper PMC11403291.

Amino acid sequences for entries named in this document (tags omitted). A change or cut given only in a name is not applied to a line headed by its entry.
UniProt Q2M2I8: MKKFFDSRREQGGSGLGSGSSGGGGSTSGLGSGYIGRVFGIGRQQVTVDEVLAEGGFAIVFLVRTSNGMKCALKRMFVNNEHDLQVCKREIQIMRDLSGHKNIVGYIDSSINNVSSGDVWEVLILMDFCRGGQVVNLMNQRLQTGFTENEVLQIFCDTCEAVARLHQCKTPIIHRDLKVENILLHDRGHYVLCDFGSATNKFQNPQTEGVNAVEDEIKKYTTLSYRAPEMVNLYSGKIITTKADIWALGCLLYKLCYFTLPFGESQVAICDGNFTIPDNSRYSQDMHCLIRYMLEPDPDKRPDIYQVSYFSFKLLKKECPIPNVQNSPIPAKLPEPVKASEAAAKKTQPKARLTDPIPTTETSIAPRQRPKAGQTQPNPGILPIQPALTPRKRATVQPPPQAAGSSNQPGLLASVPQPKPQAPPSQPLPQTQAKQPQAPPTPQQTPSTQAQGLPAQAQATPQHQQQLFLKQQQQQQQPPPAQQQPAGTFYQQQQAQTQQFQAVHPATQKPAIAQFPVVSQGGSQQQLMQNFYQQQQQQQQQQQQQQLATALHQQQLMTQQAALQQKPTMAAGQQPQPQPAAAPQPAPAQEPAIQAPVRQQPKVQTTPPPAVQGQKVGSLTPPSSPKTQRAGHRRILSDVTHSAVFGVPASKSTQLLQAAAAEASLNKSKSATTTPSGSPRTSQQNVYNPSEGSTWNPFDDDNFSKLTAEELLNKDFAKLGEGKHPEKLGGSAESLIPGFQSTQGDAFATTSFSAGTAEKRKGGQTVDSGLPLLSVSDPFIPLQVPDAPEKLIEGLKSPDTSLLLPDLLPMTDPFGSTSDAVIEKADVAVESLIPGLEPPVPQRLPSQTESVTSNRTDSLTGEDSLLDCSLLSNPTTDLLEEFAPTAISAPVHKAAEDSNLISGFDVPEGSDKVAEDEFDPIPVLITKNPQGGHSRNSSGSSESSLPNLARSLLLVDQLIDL
UniProt Q8NI60: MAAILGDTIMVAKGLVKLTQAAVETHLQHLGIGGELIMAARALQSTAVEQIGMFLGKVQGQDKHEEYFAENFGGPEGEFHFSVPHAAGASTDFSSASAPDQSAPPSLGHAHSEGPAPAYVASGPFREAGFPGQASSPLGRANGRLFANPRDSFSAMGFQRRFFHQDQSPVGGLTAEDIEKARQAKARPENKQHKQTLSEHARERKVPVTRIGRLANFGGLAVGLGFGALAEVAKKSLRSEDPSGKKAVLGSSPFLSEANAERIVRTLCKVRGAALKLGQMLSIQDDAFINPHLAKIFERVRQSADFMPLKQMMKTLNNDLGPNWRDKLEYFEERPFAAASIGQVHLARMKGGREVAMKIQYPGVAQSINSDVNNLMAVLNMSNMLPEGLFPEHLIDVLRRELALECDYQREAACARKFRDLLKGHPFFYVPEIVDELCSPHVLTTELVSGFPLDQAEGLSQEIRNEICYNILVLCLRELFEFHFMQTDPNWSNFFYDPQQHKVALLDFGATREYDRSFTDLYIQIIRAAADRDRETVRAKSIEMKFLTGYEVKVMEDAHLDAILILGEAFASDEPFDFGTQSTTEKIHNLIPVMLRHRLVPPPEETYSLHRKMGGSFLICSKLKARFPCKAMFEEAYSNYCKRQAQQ
UniProt P50613: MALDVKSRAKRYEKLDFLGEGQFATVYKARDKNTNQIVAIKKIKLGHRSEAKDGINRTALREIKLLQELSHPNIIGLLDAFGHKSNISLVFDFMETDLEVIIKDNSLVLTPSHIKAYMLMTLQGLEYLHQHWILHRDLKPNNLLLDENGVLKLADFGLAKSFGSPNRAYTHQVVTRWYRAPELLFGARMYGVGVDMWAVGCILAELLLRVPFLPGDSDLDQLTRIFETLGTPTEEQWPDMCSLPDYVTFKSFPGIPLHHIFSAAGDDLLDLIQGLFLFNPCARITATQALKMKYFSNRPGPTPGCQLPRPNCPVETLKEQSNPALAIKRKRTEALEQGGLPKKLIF
UniProt Q15303, whole entry: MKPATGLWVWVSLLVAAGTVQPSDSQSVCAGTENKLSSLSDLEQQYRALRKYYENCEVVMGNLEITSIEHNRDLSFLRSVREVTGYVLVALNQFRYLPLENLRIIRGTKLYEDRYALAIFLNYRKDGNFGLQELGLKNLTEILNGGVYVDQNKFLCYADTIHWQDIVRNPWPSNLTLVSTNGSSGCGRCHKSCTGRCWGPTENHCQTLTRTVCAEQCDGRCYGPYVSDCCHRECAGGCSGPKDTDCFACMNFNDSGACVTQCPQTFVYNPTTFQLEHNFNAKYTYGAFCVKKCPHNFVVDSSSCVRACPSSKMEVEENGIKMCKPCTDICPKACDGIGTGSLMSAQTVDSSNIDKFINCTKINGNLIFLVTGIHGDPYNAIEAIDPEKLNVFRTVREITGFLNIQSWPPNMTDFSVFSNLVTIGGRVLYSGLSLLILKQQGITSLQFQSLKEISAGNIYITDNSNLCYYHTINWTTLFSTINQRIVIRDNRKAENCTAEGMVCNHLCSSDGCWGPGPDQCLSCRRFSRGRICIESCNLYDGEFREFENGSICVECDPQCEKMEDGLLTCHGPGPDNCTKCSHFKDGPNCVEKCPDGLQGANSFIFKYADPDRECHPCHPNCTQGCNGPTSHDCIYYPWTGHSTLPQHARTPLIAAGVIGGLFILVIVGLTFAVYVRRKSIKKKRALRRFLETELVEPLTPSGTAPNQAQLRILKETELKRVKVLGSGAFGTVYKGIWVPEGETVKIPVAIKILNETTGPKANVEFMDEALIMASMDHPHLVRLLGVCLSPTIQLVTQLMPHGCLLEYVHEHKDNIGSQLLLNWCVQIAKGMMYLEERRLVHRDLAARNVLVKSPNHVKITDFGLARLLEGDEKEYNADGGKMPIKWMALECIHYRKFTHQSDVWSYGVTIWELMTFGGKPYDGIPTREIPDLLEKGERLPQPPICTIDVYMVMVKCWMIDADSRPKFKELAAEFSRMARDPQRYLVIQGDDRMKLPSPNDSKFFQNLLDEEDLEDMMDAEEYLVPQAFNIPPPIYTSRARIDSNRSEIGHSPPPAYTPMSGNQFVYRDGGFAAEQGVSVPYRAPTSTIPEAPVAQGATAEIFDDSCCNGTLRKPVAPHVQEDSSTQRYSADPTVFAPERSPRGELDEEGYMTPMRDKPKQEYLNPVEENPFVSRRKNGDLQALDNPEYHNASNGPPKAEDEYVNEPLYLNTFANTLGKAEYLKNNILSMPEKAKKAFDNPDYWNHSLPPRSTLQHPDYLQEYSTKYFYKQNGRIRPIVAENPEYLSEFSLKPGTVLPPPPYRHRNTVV
UniProt P08069, whole entry, looked up: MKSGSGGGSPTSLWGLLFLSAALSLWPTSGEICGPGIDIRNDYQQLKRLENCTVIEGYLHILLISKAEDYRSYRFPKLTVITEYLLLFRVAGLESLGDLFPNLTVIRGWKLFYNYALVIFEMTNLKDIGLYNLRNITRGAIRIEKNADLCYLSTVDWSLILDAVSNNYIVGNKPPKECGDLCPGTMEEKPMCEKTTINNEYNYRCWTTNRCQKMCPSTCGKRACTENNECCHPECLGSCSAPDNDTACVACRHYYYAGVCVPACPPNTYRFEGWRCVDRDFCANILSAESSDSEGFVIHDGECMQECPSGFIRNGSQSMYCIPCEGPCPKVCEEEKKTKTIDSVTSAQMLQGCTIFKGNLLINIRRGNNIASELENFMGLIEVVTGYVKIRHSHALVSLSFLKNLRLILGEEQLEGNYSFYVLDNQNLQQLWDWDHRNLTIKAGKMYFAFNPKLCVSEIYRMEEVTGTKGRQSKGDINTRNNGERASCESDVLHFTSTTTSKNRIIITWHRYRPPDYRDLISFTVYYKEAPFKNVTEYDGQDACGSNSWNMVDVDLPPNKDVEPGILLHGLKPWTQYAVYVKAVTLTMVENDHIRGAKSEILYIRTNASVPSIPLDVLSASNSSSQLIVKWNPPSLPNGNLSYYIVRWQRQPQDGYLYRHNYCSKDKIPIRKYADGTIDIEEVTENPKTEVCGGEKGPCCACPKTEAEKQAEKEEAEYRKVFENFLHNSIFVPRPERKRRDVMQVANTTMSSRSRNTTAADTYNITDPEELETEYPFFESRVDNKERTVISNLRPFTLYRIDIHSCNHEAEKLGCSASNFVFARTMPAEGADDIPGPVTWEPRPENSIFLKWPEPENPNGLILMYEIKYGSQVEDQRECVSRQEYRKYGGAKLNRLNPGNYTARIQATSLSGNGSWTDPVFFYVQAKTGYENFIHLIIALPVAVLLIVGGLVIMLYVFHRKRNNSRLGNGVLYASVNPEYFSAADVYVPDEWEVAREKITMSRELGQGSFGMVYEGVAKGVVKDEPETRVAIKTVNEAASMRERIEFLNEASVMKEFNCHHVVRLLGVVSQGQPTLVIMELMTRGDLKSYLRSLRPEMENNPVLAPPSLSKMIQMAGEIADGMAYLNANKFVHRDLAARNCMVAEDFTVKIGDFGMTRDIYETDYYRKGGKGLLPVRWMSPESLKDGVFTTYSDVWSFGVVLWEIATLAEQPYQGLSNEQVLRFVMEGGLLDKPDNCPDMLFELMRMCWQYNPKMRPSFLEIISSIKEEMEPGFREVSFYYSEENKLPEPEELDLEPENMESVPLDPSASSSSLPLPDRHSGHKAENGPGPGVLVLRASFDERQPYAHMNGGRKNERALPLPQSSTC
UniProt Q9Y2K2: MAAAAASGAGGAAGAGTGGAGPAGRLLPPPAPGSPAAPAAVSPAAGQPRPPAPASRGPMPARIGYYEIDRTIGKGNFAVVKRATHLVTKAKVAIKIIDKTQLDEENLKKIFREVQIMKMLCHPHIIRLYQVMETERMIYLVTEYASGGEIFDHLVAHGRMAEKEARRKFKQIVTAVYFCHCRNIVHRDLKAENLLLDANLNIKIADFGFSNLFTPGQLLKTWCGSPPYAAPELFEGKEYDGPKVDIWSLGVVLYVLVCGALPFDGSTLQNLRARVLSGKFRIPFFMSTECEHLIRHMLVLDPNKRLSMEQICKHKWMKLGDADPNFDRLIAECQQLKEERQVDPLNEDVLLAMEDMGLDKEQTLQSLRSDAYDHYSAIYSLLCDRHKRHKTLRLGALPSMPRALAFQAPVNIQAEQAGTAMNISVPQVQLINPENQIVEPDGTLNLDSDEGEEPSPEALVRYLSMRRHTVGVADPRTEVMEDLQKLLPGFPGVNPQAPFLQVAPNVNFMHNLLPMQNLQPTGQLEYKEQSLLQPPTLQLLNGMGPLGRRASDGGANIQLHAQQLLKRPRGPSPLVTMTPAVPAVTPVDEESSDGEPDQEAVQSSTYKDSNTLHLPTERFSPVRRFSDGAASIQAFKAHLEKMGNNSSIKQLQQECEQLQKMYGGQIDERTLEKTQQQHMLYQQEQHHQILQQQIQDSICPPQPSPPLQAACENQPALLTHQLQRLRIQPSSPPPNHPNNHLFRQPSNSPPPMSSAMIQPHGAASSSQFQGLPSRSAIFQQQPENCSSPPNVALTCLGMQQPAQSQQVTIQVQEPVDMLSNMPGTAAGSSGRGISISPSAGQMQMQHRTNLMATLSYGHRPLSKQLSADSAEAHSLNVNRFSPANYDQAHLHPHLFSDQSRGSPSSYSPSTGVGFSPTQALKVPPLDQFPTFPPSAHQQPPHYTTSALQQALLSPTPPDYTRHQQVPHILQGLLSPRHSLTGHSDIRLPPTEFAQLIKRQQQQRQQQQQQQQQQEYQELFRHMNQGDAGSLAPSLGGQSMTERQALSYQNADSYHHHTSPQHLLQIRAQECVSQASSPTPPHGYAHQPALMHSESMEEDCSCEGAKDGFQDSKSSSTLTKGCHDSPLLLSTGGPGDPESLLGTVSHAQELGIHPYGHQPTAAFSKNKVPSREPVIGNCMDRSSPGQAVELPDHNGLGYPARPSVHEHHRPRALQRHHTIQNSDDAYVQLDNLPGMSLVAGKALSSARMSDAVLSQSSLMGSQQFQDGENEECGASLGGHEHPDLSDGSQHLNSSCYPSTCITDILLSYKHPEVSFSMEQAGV
UniProt Q9HBH9: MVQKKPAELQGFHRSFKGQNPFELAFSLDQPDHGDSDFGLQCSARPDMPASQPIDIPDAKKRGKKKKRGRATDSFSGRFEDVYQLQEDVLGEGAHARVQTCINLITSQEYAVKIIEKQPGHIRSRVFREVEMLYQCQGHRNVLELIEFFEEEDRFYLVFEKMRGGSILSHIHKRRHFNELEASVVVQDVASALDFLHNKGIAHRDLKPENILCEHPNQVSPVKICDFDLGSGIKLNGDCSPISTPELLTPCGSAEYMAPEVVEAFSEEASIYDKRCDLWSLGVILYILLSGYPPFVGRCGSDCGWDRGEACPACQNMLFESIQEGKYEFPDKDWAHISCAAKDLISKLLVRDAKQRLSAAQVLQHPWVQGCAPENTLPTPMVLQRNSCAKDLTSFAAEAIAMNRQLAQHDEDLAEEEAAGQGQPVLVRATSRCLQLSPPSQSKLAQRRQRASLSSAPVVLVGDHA

Experiments:
Test in all cases: apparent dissociation constant pKd app (kinobead competition) (-log10(M)); higher = stronger binding
[1] = target: AAK1 (UniProt Q2M2I8)
[2] = target: ABL2 (UniProt P42684)
[3] = target: T1, AURKA (UniProt O14965)
T1 sequence (whole entry): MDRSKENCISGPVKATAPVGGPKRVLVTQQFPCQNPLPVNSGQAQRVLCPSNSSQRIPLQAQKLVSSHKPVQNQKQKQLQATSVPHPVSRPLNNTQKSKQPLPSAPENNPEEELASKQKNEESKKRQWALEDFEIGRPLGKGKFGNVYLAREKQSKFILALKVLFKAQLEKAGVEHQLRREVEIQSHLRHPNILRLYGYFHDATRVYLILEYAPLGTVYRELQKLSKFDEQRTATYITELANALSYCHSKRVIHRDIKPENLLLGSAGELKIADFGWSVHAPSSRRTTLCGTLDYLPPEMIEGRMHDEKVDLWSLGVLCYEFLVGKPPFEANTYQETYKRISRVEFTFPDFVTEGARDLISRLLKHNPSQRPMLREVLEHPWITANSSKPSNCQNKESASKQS

[4] = target: CABC1 (UniProt Q8NI60)
[5] = target: CDK7 (UniProt P50613)
[6] = target: EGFR (UniProt P00533)
[7] = target: ERBB4 (UniProt Q15303)
[8] = target: FYN (UniProt P06241)
[9] = target: IGF1R (UniProt P08069)
[10] = target: KIAA0999 (UniProt Q9Y2K2)
[11] = target: T2, MAP2K4 (UniProt P45985)
T2 sequence (whole entry): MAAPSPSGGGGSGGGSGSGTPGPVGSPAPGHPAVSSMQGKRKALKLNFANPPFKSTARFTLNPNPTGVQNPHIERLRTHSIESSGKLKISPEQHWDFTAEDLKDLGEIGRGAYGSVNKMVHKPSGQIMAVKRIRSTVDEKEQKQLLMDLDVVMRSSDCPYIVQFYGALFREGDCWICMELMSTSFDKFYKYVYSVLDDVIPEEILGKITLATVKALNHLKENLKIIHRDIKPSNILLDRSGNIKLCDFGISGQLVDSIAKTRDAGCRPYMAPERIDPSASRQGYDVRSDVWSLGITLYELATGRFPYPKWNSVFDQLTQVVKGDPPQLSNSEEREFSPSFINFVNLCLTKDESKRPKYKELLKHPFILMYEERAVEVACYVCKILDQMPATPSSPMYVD

[12] = target: T3, MAP4K3 (UniProt Q8IVH8)
T3 sequence (whole entry): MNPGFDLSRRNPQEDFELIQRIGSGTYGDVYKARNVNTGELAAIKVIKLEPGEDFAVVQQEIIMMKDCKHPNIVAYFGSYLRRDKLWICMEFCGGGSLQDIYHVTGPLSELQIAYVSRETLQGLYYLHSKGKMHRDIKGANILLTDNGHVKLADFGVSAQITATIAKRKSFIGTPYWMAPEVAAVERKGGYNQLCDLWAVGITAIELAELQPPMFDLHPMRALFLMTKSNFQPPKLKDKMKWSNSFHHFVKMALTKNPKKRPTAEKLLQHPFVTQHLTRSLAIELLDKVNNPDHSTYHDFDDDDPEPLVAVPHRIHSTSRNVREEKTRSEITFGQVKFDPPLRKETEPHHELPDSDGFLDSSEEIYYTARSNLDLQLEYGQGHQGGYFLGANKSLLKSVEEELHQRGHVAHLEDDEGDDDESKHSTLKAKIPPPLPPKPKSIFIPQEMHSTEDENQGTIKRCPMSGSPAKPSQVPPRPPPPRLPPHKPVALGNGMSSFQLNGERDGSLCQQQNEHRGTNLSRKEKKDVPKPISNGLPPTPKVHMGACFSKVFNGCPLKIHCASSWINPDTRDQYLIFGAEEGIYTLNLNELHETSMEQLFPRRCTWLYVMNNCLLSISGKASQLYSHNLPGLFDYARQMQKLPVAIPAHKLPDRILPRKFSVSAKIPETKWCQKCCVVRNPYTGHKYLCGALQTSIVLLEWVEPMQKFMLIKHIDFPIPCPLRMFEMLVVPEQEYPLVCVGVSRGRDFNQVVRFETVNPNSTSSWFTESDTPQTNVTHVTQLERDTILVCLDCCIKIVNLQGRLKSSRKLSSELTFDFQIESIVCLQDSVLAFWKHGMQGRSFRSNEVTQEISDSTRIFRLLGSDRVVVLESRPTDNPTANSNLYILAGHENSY

[13] = target: MKNK2 (UniProt Q9HBH9)
[14] = target: T4, PRKX (UniProt P51817)
T4 sequence (whole entry): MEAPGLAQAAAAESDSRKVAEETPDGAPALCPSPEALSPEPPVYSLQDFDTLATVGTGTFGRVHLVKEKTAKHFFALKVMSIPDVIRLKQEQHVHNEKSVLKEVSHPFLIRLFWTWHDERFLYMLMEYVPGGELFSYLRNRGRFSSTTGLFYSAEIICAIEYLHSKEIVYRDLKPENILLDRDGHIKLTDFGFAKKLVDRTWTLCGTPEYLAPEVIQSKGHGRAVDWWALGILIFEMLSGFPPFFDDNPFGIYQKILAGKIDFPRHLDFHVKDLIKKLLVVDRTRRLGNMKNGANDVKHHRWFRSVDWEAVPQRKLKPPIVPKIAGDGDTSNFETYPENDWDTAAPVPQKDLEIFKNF

Row | apparent dissociation constant pKd app (-log10) [1] | apparent dissociation constant pKd app (-log10) [2] | apparent dissociation constant pKd app (-log10) [3] | apparent dissociation constant pKd app (-log10) [4] | apparent dissociation constant pKd app (-log10) [5] | apparent dissociation constant pKd app (-log10) [6] | apparent dissociation constant pKd app (-log10) [7] | apparent dissociation constant pKd app (-log10) [8] | apparent dissociation constant pKd app (-log10) [9] | apparent dissociation constant pKd app (-log10) [10] | apparent dissociation constant pKd app (-log10) [11] | apparent dissociation constant pKd app (-log10) [12] | apparent dissociation constant pKd app (-log10) [13] | apparent dissociation constant pKd app (-log10) [14] | Structure (SMILES)
1 | < 4.8 | < 4.7 | < 4.9 | < 4.6 | < 4.5 | < 4.5 | < 4.5 | < 4.8 | < 4.5 | < 4.6 | < 4.6 | < 4.6 | < 4.6 | < 4.6 | O=C(c1cc(Cc2n[nH]c(=O)c3ccccc23)ccc1F)N1CCN(C(=O)C2CC2)CC1 [Olaparib]
2 | < 4.8 | < 4.7 | < 4.9 | < 4.6 | < 4.5 | < 4.5 | < 4.5 | < 4.8 | < 4.5 | < 4.6 | < 4.6 | < 4.6 | < 4.6 | < 4.6 | NC(=O)c1cccc2cn(-c3ccc([C@@H]4CCCNC4)cc3)nc12 [Niraparib]
3 | < 4.8 | < 4.7 | < 4.9 | < 4.6 | < 4.5 | < 4.5 | < 4.5 | < 4.8 | < 4.5 | < 4.6 | < 4.6 | < 4.6 | < 4.6 | < 4.6 | Cn1ncnc1[C@H]1c2n[nH]c(=O)c3cc(F)cc(c23)N[C@@H]1c1ccc(F)cc1 [Talazoparib]
